From article PMC11116815

Protein sequences, listed by entry. Tags and fused reporters are not part of them.
UniProt P37288, whole entry: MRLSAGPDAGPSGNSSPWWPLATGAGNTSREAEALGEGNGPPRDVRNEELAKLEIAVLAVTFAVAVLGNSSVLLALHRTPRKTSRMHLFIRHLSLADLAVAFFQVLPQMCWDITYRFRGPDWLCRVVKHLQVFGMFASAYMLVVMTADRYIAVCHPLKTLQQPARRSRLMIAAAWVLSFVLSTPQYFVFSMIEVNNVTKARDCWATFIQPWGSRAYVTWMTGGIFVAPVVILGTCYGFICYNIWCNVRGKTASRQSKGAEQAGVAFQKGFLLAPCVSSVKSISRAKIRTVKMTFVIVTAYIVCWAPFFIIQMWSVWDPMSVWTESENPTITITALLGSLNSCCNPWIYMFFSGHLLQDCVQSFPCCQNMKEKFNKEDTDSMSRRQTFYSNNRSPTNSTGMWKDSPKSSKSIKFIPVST

What was measured:
[1] = target: arginine vasopressin receptor 1A (AVPR1A) (human (endogenous in THP-1 and human monocytes)) (UniProt P37288)
[2] = target: arginine vasopressin receptor 1A (AVPR1A) (human (endogenous in THP-1 and human monocytes)) (UniProt P37288); remark: listed apart in the source

- EC50 of aVP to enhance CCR1-mediated (CCL23-induced) chemotaxis of THP-1 cells; heteromer concerned: AVPR1A:CCR1 [1]: 17 nM
- IC50 of aVP for inhibition of chemotaxis of THP-1 cells toward CXCL12 (100 nmol/liter; CXCR4-mediated), transwell migration; heteromer concerned: AVPR1A:CXCR4 [1]: 0.25 nM
- efficacy of aVP (various concentrations) to inhibit chemotaxis of THP-1 cells toward CCL2 (10 nmol/liter) [1]: > 60%
- efficacy of aVP (various concentrations) to inhibit chemotaxis of THP-1 cells toward CXCL12 (100 nmol/liter) [1]: > 60%
- enhancement by aVP (various concentrations) of chemotaxis of THP-1 cells toward CCL23 (0.1 nmol/liter; CCR1-mediated), chemotactic index in percent of cells not exposed to aVP [1]: 278%
- EC50 of aVP to enhance CCL23-induced (0.1 nmol/liter) chemotaxis of human monocytes [2]: 7 nM
- IC50 of aVP for inhibition of CCL2-induced (10 nmol/liter) chemotaxis of freshly isolated human monocytes [2]: 1 nM
- enhancement by aVP (various concentrations) of CCL23-induced chemotaxis of human monocytes [2]: 275%
- inhibition by aVP (various concentrations) of CCL2-induced chemotaxis of human monocytes [2]: 74%
Substance: arginine vasopressin (aVP) (peptide)
